The values that follow come from US20250223276A1, “Substituted Pyrrolidinyl And Piperidinyl Compounds And Related Methods Of Treatment” (Alkermes, Inc., priority 2022, published 2025).

Protein sequences, listed by entry. Tags and fused reporters are not part of them.
UniProt O43614, whole entry: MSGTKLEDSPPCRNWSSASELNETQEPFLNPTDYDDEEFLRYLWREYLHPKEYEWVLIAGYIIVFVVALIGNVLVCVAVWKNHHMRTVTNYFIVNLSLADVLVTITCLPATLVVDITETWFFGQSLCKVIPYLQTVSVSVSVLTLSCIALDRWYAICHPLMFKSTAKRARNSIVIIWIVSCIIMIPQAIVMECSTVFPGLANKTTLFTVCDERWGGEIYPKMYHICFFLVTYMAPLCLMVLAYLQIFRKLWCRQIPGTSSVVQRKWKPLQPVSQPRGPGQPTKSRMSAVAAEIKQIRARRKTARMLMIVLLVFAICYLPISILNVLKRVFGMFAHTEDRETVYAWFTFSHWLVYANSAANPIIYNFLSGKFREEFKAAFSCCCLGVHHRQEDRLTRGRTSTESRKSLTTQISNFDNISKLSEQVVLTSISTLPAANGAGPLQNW

SMILES strings stand for the structures. pEC50: −log10 of the molar value.

The assay has as its target human orexin-2 receptor (OX2R) (Homo sapiens, UniProt O43614). As to the kind of experiment: Human OX2R IP1 assay. As to conditions: T-Rex CHO cells stably overexpressing human OX2R; IP1 (inositol monophosphate) accumulation, HTRF; 1 hr at 37 degrees C. The method, then:
T-Rex CHO cells stably overexpressing the human orexin-2 receptor (OX2R) are induced overnight with 1 μg/mL of doxycycline in a T225 flask. 24 hours post induction, cells are lifted with accutase and plated into a 384-well proxy plate at 30,000 cells/well. Cells are then treated with different test compounds in 1× stimulation buffer containing 10 mM Hepes, 1 mM CaCl2), 0.5 mM MgCl2, 4.2 mM KCl, 146 mM NaCl, 5.5 mM glucose, and 50 mM LiCl, pH 7.4, for 1 hr at 37 degrees C. Following incubation, the reaction is terminated by the addition of detection mix, which is composed of IP1-d2 and anti-IP1-cryptate diluted in lysis buffer as well as 1× stimulation buffer. The plates are allowed to incubate for 1 hour at room temperature and are then read in the En Vision® multimode plate reader, measuring inositol phosphate levels.
Cisbio IP1 is a cell-based functional assay quantifying the accumulation of inositol monophosphate (IP), a metabolite released as a result of orexin 2 receptor activation through the phospholipase C-Gq signaling pathway. This is a competitive immunoassay in which the IP1 produced by the cells upon receptor activation competes with the IP1 analog coupled to the d2 fluorophore (acceptor) for binding to an anti-IP1 monoclonal antibody labeled with Eu cryptate (donor). The measured HTRF-FRET based signal is inversely proportional to the IP1 concentration produced. […]
Background: TR-FRET usually uses a lanthanide donor and a delayed reading to cut background.

What is called pEC50 is the EC50 on a negative log10 scale, so that one unit is a factor of ten. A high value points to a low EC50.

`O=C(N[C@H]1CCN(c2cccnn2)C[C@H]1CO[C@H]1CC[C@@H](c2cccc(F)c2)CC1)C(F)(F)F` had a pEC50 greater than 7.00.
